Among the data in PMC11582101, “Unlocking the potential: unveiling tyrphostins with Michael-reactive cyanoacrylate motif as promising inhibitors of human 5-lipoxygenase” (Pflugers Archiv, 2024) are IC50 values, retold here.

As usually defined, the pIC50 is the IC50 on a negative log10 scale, so that one unit is a factor of ten.

In the assay the target is T1, recombinant human 5-LO (r5-LO_WT) (Homo sapiens, UniProt P09917).
T1 sequence (P09917 1-674): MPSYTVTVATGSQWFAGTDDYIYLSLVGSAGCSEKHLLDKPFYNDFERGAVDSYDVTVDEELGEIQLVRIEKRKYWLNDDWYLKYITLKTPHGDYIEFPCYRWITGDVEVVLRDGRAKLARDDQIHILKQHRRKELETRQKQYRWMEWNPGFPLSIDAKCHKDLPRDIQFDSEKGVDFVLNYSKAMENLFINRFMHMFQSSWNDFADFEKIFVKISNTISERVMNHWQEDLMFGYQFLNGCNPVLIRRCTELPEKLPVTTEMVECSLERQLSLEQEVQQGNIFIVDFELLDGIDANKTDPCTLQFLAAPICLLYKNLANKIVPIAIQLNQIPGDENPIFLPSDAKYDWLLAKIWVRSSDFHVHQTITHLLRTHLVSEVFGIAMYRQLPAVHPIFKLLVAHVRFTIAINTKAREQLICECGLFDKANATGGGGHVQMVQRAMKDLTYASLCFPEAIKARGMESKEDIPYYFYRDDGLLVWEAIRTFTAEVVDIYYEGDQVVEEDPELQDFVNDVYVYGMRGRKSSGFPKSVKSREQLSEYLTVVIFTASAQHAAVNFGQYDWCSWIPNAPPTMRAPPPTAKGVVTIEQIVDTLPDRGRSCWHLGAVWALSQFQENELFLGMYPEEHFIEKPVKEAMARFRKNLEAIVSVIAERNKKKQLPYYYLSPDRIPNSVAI
The assay is described as follows: biochemical. The following applies: IC50 for inhibition of 5-LO product formation.

pIC50: −log10 of the molar value.

Take `CC(C)(C)c1cc(C=C(C#N)C#N)cc(C(C)(C)C)c1O` [Tyrphostin A9]: the negative logarithm of the IC50 (pIC50) is 6.10.
